By UniProt entry, the sequences of proteins in these tests, tags left out. Residues count along the entry.
UniProt P09874, whole entry, species assumed: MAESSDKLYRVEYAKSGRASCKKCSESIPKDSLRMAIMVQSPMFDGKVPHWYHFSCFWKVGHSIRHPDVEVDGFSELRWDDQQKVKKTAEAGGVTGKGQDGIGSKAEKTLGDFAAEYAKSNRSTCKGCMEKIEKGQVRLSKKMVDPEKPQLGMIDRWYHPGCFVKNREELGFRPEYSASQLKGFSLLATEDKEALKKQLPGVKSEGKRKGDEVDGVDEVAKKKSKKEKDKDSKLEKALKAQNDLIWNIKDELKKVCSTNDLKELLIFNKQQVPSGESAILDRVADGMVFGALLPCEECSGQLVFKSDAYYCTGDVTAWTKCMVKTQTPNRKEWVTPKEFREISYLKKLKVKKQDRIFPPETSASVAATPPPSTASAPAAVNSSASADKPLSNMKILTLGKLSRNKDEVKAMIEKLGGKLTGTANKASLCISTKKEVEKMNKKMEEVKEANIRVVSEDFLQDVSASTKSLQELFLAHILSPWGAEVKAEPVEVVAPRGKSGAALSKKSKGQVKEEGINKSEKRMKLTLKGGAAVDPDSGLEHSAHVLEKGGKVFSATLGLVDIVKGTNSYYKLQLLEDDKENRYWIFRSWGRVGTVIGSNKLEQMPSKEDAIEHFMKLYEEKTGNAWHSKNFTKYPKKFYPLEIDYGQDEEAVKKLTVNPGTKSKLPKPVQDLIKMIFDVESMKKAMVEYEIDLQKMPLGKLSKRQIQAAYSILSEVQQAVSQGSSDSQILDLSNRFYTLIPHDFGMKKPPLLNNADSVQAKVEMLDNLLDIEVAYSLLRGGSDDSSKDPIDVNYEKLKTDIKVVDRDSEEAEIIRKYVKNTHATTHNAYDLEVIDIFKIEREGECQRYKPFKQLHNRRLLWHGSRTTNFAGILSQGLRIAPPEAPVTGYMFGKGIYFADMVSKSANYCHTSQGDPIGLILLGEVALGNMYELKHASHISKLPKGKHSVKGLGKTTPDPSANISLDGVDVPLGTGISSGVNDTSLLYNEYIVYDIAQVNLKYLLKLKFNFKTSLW
UniProt P09874, 2-1014: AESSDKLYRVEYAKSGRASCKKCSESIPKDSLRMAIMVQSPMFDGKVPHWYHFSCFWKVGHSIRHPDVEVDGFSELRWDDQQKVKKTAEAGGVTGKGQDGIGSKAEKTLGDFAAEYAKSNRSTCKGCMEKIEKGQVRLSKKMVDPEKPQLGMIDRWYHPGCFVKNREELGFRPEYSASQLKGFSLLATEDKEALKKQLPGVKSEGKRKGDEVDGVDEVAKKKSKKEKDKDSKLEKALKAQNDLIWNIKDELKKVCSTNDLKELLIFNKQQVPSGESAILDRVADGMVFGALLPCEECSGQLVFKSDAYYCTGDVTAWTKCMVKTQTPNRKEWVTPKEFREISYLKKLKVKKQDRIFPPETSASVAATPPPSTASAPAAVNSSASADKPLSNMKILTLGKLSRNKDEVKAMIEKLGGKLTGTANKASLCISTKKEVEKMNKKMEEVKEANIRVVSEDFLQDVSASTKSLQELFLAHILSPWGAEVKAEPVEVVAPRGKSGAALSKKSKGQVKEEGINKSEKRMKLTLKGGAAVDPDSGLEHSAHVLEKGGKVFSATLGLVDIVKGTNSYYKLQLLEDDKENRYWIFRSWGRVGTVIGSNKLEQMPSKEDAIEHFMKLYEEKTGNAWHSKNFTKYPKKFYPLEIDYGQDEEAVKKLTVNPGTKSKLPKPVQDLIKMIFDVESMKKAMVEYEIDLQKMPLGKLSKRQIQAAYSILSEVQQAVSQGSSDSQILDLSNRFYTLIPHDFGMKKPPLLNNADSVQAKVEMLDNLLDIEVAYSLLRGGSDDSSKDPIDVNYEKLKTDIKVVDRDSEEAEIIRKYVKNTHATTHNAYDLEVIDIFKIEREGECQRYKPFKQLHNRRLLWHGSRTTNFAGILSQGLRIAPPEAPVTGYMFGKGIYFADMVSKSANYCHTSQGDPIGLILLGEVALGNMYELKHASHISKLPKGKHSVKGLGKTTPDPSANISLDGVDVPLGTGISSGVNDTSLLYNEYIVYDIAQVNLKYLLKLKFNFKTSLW

According to patent publication US20250251402A1, “METHODS OF DETECTING MOLECULAR AGGREGATES USING IMAGE CORRELATION SPECTROSCOPY (ICS)” (The General Hospital Corporation, priority 2022, published 2025):

Columns and labels:
PARP1 [1] = target: T1, PARP1 (Homo sapiens, UniProt P09874); assay: PARP1 trapping by chromatin fractionation in HT1080 cells; assay type: cell-based; conditions: HT1080, 1 μM PARPi overnight, five clinical PARPi
PARP1 [2] = target: T1, PARP1; conditions: actual rate multiplied by 10^−7 for the stochastic model
PARP = PARP (Homo sapiens, UniProt P09874); conditions: HT1080, 1 μM PARPi, 500 nM fluorescent olaparib
PARP1 [3] = target: T1, PARP1; conditions: average of previous measurements; cited from earlier work
PARP1-DNA = PARP1-DNA (Homo sapiens, UniProt P09874); conditions: from previous findings; cited from earlier work

For `Cn1ncnc1[C@H]1c2n[nH]c(=O)c3cc(F)cc(c23)N[C@@H]1c1ccc(F)cc1` [talazoparib], the “PARP1 trapping normalized to DMSO control” value (PARP1 [1]) was “most distinct difference in trapping”, the “p.ka_trap: association of PARPi to PARP1, corrected rate” value (PARP1 [2]) was 0.036 M⁻¹ s⁻¹ and the “Apparent dissociation constant (koff) of PARPi in live cells” value (PARP) was “values similar to those previously determined in purified protein”. For the same compound, the “ka (trap): association constant of PARPi for PARP1” value (PARP1 [3]) was 360000 M⁻¹ s⁻¹, the “kd (trap): dissociation of PARPi from PARP1(-DNA)” value (PARP1 [3]) was 8e-05 s⁻¹ and the “kd (rel PARPi): dissociation constant of PARPi-PARP1 from DNA” value (PARP1-DNA) was 0.00252 s⁻¹.
